Data from patent publication US20130131321A1, “LIGANDS FOR ANTIBODY AND Fc-FUSION PROTEIN PURIFICATION BY AFFINITY CHROMATOGRAPHY” (GRAFFINITY PHARMACEUTICALS GMBH, priority 2010, published 2013).

Key:
Bevacizumab [1] = assay: Microtiter plate chromatography of resins, Bevacizumab whole IgG (bound, yield, selectivity); type: binding, humanized; conditions: for Selectivity: fraction of bound Bevacizumab whole IgG / fraction of bound HCP, truncated beyond values of 10; for selectivity index: fraction of bound Bevacizumab whole IgG divided by fraction of bound HCP, truncated beyond 10
Experimental: Resins were assessed in packed mode by microtiter plate chromatography. For each column, approximately 30 μl of resin were transferred to a 384-well filter plate and sealed with appropriate top frits.
Columns were equilibrated with 6.7 column volumes (cv) of phosphate buffered saline (0.15 M NaCl, 20 mM sodium phosphate, pH 7.3; PBS) prior to injection. Either 3.3 cv of whole IgGs dissolved at 0.75 mg ml^−1, Fab or Fc fragments dissolved at 0.25 mg ml^−1 (all three in PBS) or host cell proteins (HCP) were injected onto columns. Antibody fragments of Bevacizumab (Fab and Fc) were prepared by cleavage of whole IgG with papain protease (3) according to the protocol of the manufacturer. Unbound protein was washed from columns with 5 cv of PBS prior to elution with 5 cv of glycine buffer at pH 2.5. Volumes transferred were spun through columns at 50 g for 1-2 min. During injection of samples, acceleration was reduced to 10 g and centrifugation time increased to 5-10 min. Effluent fractions were collected in 384-well plates and concentrations of protein analyzed by Bradford assay. Protein masses mi, mft and me (see below) were calculated as the product of fraction volume and measured protein concentration.
The fraction of ‘bound’ protein was calculated as the difference between the total mass of protein injected mi and the mass of protein detected in the flowthrough mft, divided by the total mass of protein injected.
The ‘yield’ of protein was calculated as the mass of protein eluted me, divided by the mass of protein injected mi.
The ‘selectivity’ of resins was calculated as the fraction of bound antibody BAb, divided by the fraction of bound host cell proteins BHCP.
the fraction of ‘bound’ protein and the ‘yield’ of protein were calculated for each resin based on data for whole IgG-antibodies. In the case of Bevacizumab fragments and host cell proteins, only the fraction of ‘bound’ protein is given. Selectivity of resins was calculated from data for Bevacizumab Whole IgG and host cell proteins. Due to limited experimental precision, selectivity was truncated beyond values of 10.

Bevacizumab [2] = target: T1, Bevacizumab (Homo sapiens, UniProt P01857); assay: Langmuir isotherms by batch adsorption; type: binding, humanized; conditions: read-out: Kd (dissociation constant, Langmuir isotherm); Bevacizumab in PBS pH 7.3, 25° C., at least 3 h
T1 construct: fused on or other part: humanised anti-VEGF-A VH domain N-terminal of the gamma-1 constant region (engineered, no UniProt entry)
Experimental: Experiments were performed with Bevacizumab as antibody. Parameters of Langmuir isotherms for purified antibody were determined by batch adsorption experiments in 96-well microtiter plates. In each well, 10 μl of sorbent slurry (50% v/v) were mixed with 100 μl of protein solution. Initial concentrations varied from 0.05-5 mg ml^−1 in phosphate-buffered saline (0.15 M NaCl, 20 mM phosphate buffer, pH 7.3; PBS). Reactions were agitated vigorously at 25° C. for at least 3 h. Afterwards, antibody concentration in the supernatents were measured by Bradford assay.
Parameters of Langmuir isotherms, i.e. dissociation constants Kd and maximum capacities qm, were determined from the measured concentrations in supernatants. Parameters were estimated by numerical fitting of the model equation derived by Chase (4).

Row | Compound | Selectivity (Bevacizumab [1]) | selectivity index (Bevacizumab [1]) | pKd (Bevacizumab [2])
1 | C#Cc1cncc(C(=O)Nc2ccc(OC)c(C(=O)NCCCN)c2)c1 [Ligand L24, 5-(3-Ethynylpyridin-5-yl)carboxamido-2-methoxybenzoic acid N-(3-aminopropyl)amide] | 3.5 | – | –
2 | COc1ccc(NC(=O)c2cncc(-c3ccco3)c2)cc1C(=O)NCCCN [Ligand L13, 5-[3-(2-Furyl)pyridin-5-yl]carboxamido-2-methoxybenzoic acid N-(3-aminopropyl)amide] | 2.7 | – | –
3 | COc1ccc(NC(=O)c2cc(-c3ccco3)n(C)n2)cc1C(=O)NCCCN [Ligand L1, 5-[5-(2-Furyl)-1-methylpyrazol-3-yl]carboxamido-2-methoxybenzoic acid N-(3-aminopropyl)amide] | 3.3 | 3.3 | 3.81
4 | COc1ccc(NC(=O)c2nn(C)c3ccccc23)cc1C(=O)NCCCN [Ligand L27, 2-Methoxy-5-(1-methylindazol-3-yl)carboxamidobenzoic acid N-(3-aminopropyl)amide] | 2.9 | 2.9 | 3.62
5 | Cn1nc(C(=O)Nc2cccc(C(=O)NCCCN)c2)cc1-c1ccco1 [Ligand L17, 3-[5-(2-Furyl)-1-methylpyrazol-3-yl]carboxamidobenzoic acid N-(3-aminopropyl)amide] | 2.8 | – | 3.16
6 | COc1ccc(NC(=O)c2cncc(C3CC3)c2)cc1C(=O)NCCCN [Ligand L23, 5-(3-Cyclopropylpyridin-5-yl)carboxamido-2-methoxybenzoic acid N-(3-aminopropyl)amide] | 3.1 | – | 3.55
7 | COc1ccc(NC(=O)c2cncc(-c3ccoc3)c2)cc1C(=O)NCCCN [Ligand L22, 5-[3-(3-Furyl)pyridin-5-yl]carboxamido-2-methoxybenzoic acid N-(3-aminopropyl)amide] | 3.1 | – | –

pKd: −log10 of the molar value.
